# AlphaSeq binding of Ab-14 light chain variants to a spike HR2 peptide

Values reported by Engelhart et al. 2022, doi:10.1038/s41597-022-01779-4 (FLAb copy).

Binding partner: SARS-CoV-2 spike HR2 peptide, sequence PDVDLGDISGINAS.

Parent scFv Ab-14: VH joined to VL by three GGGGS repeats. Changes lie in the light chain CDRs alone.
VH: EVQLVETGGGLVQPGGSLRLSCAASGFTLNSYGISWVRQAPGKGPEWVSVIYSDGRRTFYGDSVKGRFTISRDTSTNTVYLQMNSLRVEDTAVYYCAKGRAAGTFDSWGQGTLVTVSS
VL: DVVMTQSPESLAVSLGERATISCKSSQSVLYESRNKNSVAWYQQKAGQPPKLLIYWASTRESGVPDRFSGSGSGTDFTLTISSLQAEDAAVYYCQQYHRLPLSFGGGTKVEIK

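The parent was found by panning a naive human phage display library on the peptide. In library AAYL50, one, two or three CDR residues were substituted; doubles and triples were drawn at random. In AlphaSeq, yeast of one mating type display the scFv and yeast of the other type display the target. Mating (16 h, 30 °C) was followed by selection of diploids and sequencing of their barcodes. Read counts were normalised to the haploid input and turned into Kd by a linear fit to BCL2-family pairs of known affinity, for each replicate. Each pool was mated in three replicate cultures.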

Each variant is given by its three light chain CDRs, as the data file delimits them; those of the parent are KSSQSVLYESRNKNSVA, WASTRES, QQYHRLPLS. Numbers give log10(Kd / nM), so 0 is 1 nM and 3 is 1 µM. Smaller is tighter. Where no diploid with the target was found in that replicate, the entry reads "nd": below detection, most likely a poor binder, though not proof of it. Parent in this assay: reference entry 0.65, copy in this library 1.68. Background: pairings of library AAYL50 with three empty control strains gave a value in 18% of cases (median 4.19, 5th percentile 2.99). Values in that range, when seen in few replicates, are hard to tell from nonspecific mating. Also given: how often the same scFv was detected with the empty control strains.

Variant KSSQSVLYELRNKNSVA, WQSTREW, QQYHRLPLS showed nd, nd, nd (controls 1 of 9).
Variant KSSQSVLYESRNKQSVA, WASTRES, QQYHKVPLS showed nd, 4.36, nd (controls 1 of 9).
Variant KSSHSVLYESRNKNSVA, WASERES, QQYHRLPAS showed 0.58, 0.80, 0.63 (controls 3 of 9).
Variant KSSQSVLYESRNKWSVA, WASTRES, YTYHRLPLS showed nd, nd, nd (controls 0 of 9).
Variant KCSQSVLYESRNKNSVA, WASTHES, KQYHRLPLS showed nd, nd, 3.74 (controls 3 of 9).
Variant KKSQSVLYEKRNKNSVA, WAITRES, QQYHRLPLS showed nd, nd, 3.22 (controls 1 of 9).
Variant KSVQSQLYESRNKNSVA, WASTGES, QQYHRLPLS showed nd, nd, nd (controls 4 of 9).
Variant KSSQSVLYYSRNKNSVA, WASTRES, QQLHRYPLS showed nd, nd, nd (controls 0 of 9).
Variant KSSQSVLYEERNKNSVA, WASMRES, GQYHRLPLS showed 3.65, 2.93, 4.55 (controls 7 of 9).
Variant KSSQSVLYESRNKNSVA, GASTRES, QLYHRMPLS showed 0.21, 0.43, 0.28 (controls 2 of 9).
Variant KSSQSVLYESGNKNSVA, WASTRES, QQVPRLPLS showed nd, nd, nd (controls 0 of 9).
Variant NSSQSVLYESRNKNSTA, WASTRES, NQYHRLPLS showed nd, 3.52, nd (controls 0 of 9).
Variant KSSQSVLYEDRNKNSVA, NASTRES, QQYHRLHLS showed -0.07, 0.24, -0.01 (controls 1 of 9).
Variant KSSQSVLYESRNKNSVN, WASTRES, QFYHRVPLS showed nd, 5.32, nd (controls 1 of 9).
Variant KKAQSVLYESRNKNNVA, WASTRES, QQYHRLPLS showed 0.09, 0.43, 0.17 (controls 0 of 9).
Variant KSSNMVLYELRNKNSVA, WASTRES, QQYHRLPLS showed nd, 3.67, 4.90 (controls 1 of 9).
Variant KSSQSVLYESRNKNSVA, WASTNCN, QQYHRLPLS showed nd, nd, 3.62 (controls 0 of 9).
Variant KSSQSVLYESRNKNSVA, WASTRES, QQYHRLPLW showed 2.40, 2.69, 2.89 (controls 1 of 9).
Variant KSSQSVLYESRNKNSVS, WAMTRES, QQYHRRPLS showed nd, nd, nd (controls 4 of 9).
Variant KNSQSVLYESRNKNSVA, WASTRVS, GQYHRLPLS showed 2.96, 2.70, 2.58 (controls 1 of 9).
Variant FSSQLVLYESRNKNSVA, WASTRES, QQYHRLPLS showed 2.44, 2.19, 2.49 (controls 3 of 9).
Variant KSSQSVLYESRRKNSVA, WASTRES, QQYHRLPLM showed nd, 1.43, 1.61 (controls 0 of 9).
Variant KSSQSVLWESRNKNSVA, WASTRES, QQYHRLPLT showed 3.41, nd, nd (controls 0 of 9).
Variant KSMQSVLYESRNKNSVA, WASTRIS, QQYHRLPLS showed 1.33, 1.78, 1.73 (controls 1 of 9).
Variant KSSQNVLYESRNKNSVA, WASTRES, QQPHRLPLS showed nd, nd, nd (controls 1 of 9).
Variant KSSQSVLYESRNKNSLA, WASMTES, QQYHRLPLS showed 2.87, nd, 5.20 (controls 2 of 9).
Variant KSSQLVLYESRNKNSVA, WASWRES, QQYHRLPLS showed 2.68, 2.93, 2.97 (controls 3 of 9).
Variant KSSQSVLYESRNVNSVA, WVSTEES, QQYHRLPLS showed nd, 3.38, nd (controls 1 of 9).
Variant SSSQSVLYDSRNKNSVA, WASTRES, QQYHPLPLS showed nd, nd, nd (controls 0 of 9).
Variant KSSQSVLYESRNKNSHA, WASTCQS, QQYHRLPLS showed 3.60, 4.93, nd (controls 2 of 9).
Variant KSSQSVGYESRNKNSVK, WASTRES, QQYHRLPLQ showed nd, nd, 4.79 (controls 3 of 9).
Variant KSSESVLYESRNKNSVA, WASTRVS, QQYHRLPLH showed 1.36, 1.22, 1.11 (controls 1 of 9).
Variant CSSQSVLYESRNKNSVA, FASTRES, QQYHRLPAS showed 2.97, 3.36, 2.69 (controls 4 of 9).
Variant KESQSVLYESRNKNSVA, WASTRES, QPYHRLPLS showed nd, nd, nd (controls 0 of 9).
Variant KSPQSVLYESRNKNSVA, WASTRES, QQYHRLPLW showed 2.54, 2.47, 2.73 (controls 1 of 9).
Variant KSSQSVQYESYNKMSVA, WASTRES, QQYHRLPLS showed 2.22, 3.19, 2.46 (controls 1 of 9).
Variant KSSQSVLYESRNKNSVL, WTSQRES, QQYHRLPLS showed 4.59, 5.43, 4.62 (controls 6 of 9).
Variant KSSQSVLDESRNKNSVA, WDSTRES, QGYHRLPLS showed 0.57, 0.28, 0.19 (controls 0 of 9).
Variant KSSQSVLEESRNKNSVA, WASTRES, QQWHRLPLS showed 0.80, 1.07, 0.89 (controls 5 of 9).
Variant KSSQSHLIRSRNKNSVA, WASTRES, QQYHRLPLS showed 1.44, nd, 2.09 (controls 1 of 9).
Variant KSSQSVRYESRNKNSVA, WDSTRES, QQYHRLPLS showed 1.85, 2.15, 2.13 (controls 2 of 9).
Variant VSSQSVLYESRNKFSVA, WASTRES, VQYHRLPLS showed 2.27, 2.06, 2.77 (controls 4 of 9).
Variant KSSQSVLYESRNKNSVA, WHTTRES, QQYHRLPQS showed 5.26, nd, nd (controls 1 of 9).
Variant KKSQSVLYESKNKNSVA, WASTRLS, QQYHRLPLS showed 4.19, 2.52, 3.23 (controls 0 of 9).
Variant KESQSYLYESRNKNSVT, WASTRES, QQYHRLPLS showed nd, 3.03, nd (controls 1 of 9).
Variant KSSQSVLYESRNKNSVA, WASKRES, QQYYDLPLS showed 3.74, 3.94, 4.47 (controls 1 of 9).
Variant DSSQSVLYESRNKNSVK, NASTRES, QQYHRLPLS showed nd, nd, nd (controls 1 of 9).

From the list, the first 7 with no signal in any replicate:

CDR-L1	CDR-L2	CDR-L3	log10 Kd (nM) by replicate	control signals
KSSQSVLYELRNKNSVA	WQSTREW	QQYHRLPLS	nd, nd, nd	1 of 9
KSSQSVLYESRNKWSVA	WASTRES	YTYHRLPLS	nd, nd, nd	0 of 9
KSVQSQLYESRNKNSVA	WASTGES	QQYHRLPLS	nd, nd, nd	4 of 9
KSSQSVLYYSRNKNSVA	WASTRES	QQLHRYPLS	nd, nd, nd	0 of 9
KSSQSVLYESGNKNSVA	WASTRES	QQVPRLPLS	nd, nd, nd	0 of 9
KSSQSVLYESRNKNSVS	WAMTRES	QQYHRRPLS	nd, nd, nd	4 of 9
KSSQNVLYESRNKNSVA	WASTRES	QQPHRLPLS	nd, nd, nd	1 of 9